Data reported in US20080009019A1, “HIGH THROUGHPUT METHOD FOR SCREENING CANDIDATE COMPOUNDS FOR BIOLOGICAL ACTIVITY” (SmithKline Beecham Corporation, priority 2001, published 2008).

Chains of the proteins cited; added tags and fusions are not shown. Lines headed by an entry give the natural chain unless they say otherwise; changes in a name come on top.
UniProt Q01726: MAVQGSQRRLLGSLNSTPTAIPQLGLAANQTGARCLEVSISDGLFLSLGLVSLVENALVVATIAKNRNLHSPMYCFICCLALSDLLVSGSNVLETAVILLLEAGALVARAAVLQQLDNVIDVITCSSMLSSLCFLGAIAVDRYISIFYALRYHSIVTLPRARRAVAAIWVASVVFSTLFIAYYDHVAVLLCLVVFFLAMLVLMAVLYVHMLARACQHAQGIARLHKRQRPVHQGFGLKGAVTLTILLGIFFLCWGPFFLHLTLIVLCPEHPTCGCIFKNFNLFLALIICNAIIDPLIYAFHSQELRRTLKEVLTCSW

Molecular target: T1, melanocortin-1 receptor (MC1R) (Homo sapiens, UniProt Q01726)
T1 construct: expressed in transfected cells
Test: Agarose lawn reporter assay, CHO-6xCRE-luc+ cells expressing MC1 receptor
Type: cell-based

maximal response value (z value minus background z value) (concentration curve from FIG. 10E (lawn exposed to UV 10 minutes), FIG. 11A): approximately 25
Substance: 4-L-norleucine-7-D-phenylalanine-alpha melanocyte stimulating hormone [[NDP]-α-MSH]
effect of ultraviolet light exposure on the response to the peptide (UV 365 nm for 0 to 32 minutes before peptide, FIG. 9): did not significantly affect the response
concentration-response curve of luminescence activity (approximately 10 nl of 5×10^−4 M to 1.5×10^−6 M peptide solution on lawn by HDR pin tool, 4 hours at 37° C., FIGS. 5A-5B): concentration-response curve of luminescence activity was only observed when peptide was applied to the cell line expressing the appropriate receptor
